Assay results taken from patent US20180193330A1, “ALKYLATED TETRAHYDROISOQUINOLINES FOR BINDING TO CENTRAL NERVOUS SYSTEM RECEPTORS” (Florida A&M University, priority 2017, published 2018).

Protein sequences, listed by entry. Tags and fused reporters are not part of them. Residues count along the entry.
UniProt P14416, whole entry: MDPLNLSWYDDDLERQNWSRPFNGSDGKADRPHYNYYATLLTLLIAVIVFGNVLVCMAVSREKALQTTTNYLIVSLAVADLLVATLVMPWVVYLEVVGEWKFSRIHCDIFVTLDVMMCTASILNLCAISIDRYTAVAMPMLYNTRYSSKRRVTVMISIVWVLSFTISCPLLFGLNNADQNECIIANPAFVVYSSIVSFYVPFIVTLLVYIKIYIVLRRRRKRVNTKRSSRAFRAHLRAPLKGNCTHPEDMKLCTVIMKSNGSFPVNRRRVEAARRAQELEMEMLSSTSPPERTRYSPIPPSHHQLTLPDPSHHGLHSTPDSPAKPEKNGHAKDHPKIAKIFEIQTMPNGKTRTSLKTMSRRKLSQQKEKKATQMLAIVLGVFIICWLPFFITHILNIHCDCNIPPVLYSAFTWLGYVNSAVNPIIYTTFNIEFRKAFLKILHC
UniProt P35462, whole entry: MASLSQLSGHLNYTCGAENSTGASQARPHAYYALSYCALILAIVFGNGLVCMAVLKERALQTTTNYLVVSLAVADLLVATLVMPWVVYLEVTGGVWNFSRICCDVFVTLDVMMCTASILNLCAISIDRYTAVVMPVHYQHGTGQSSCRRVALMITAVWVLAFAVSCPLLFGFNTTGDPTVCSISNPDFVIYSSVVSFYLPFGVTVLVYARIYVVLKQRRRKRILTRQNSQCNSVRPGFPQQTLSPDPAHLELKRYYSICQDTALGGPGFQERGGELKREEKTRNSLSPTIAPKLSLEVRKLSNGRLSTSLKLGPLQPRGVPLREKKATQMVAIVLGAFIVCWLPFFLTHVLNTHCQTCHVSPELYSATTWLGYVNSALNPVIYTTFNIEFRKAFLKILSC
UniProt P21917, whole entry: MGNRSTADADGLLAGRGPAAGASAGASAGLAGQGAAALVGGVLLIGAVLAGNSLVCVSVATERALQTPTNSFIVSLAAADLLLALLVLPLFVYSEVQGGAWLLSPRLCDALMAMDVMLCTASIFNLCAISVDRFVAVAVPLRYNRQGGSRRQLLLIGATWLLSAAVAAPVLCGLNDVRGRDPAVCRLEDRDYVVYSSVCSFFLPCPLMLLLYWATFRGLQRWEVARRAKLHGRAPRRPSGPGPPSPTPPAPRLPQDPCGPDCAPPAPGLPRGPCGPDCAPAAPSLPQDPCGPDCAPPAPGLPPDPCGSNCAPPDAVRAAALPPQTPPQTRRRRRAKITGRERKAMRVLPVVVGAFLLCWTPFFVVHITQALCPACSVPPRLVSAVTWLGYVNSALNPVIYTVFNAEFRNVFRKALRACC
UniProt P34969, whole entry: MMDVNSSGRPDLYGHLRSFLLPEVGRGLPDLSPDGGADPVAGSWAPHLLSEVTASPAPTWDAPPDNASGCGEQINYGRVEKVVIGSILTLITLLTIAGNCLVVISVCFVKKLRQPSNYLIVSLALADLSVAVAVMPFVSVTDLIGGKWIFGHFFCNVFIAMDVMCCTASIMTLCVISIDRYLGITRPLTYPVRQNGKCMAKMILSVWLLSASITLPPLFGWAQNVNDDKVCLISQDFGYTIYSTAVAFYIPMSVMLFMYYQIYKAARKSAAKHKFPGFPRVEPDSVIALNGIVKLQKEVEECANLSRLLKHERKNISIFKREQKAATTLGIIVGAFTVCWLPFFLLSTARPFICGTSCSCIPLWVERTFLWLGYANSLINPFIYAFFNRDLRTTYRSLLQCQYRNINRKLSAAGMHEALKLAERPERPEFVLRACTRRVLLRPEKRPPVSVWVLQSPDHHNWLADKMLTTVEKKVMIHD
UniProt P31645, whole entry: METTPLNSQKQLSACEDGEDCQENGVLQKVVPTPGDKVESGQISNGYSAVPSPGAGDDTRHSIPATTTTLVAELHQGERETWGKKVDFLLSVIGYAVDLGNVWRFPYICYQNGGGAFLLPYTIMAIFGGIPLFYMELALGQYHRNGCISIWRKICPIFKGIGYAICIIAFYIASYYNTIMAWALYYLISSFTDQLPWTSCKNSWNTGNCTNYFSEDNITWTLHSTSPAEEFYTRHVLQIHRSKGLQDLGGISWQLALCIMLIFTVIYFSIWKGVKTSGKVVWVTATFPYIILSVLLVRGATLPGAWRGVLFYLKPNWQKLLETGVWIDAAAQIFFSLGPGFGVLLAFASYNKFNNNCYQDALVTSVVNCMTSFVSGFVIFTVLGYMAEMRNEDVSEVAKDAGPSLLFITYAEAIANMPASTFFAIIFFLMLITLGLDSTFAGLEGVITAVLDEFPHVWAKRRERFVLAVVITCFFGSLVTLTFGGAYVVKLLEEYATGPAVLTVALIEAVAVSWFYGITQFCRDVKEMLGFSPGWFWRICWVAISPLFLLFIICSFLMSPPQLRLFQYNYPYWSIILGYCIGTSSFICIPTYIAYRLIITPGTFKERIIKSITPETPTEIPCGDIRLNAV
UniProt P28335, 33-458 limits assumed: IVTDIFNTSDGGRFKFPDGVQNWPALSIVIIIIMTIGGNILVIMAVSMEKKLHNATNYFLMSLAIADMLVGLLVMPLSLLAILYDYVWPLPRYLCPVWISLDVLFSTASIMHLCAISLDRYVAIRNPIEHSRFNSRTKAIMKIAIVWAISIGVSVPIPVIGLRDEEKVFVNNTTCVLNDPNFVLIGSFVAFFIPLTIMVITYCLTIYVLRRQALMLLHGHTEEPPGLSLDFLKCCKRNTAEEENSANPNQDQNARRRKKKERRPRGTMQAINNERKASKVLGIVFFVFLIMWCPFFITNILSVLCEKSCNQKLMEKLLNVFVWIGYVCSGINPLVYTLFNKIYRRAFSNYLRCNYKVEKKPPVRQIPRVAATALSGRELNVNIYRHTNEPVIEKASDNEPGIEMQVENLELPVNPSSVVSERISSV
UniProt P28223, whole entry: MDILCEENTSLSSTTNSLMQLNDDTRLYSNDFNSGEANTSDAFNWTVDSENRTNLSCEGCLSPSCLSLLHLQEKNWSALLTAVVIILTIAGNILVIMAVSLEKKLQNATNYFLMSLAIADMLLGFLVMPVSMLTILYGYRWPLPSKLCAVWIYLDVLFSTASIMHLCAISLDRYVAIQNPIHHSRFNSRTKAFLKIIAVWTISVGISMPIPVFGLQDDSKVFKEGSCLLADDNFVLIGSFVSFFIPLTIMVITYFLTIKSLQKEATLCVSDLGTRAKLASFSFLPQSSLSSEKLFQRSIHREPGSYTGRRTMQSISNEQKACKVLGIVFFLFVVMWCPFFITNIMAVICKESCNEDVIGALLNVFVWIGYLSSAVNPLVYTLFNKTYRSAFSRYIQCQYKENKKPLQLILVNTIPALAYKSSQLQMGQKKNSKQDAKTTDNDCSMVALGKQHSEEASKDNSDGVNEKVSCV
UniProt P08908, whole entry: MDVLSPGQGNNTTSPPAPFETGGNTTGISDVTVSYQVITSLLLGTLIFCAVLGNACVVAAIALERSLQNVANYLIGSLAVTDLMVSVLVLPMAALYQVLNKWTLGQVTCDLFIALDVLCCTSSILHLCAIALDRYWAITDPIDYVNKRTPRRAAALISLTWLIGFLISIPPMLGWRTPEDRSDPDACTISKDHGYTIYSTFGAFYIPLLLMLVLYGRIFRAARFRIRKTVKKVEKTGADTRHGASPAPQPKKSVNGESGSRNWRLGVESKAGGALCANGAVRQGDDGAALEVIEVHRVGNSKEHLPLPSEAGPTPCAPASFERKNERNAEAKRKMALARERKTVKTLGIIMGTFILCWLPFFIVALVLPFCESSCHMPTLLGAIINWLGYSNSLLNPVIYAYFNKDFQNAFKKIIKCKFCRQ

Key:
[1] = biological target: D2 receptor (Homo sapiens, UniProt P14416); assay: Receptor binding affinity at dopamine D2 (NIMH-PDSP radioligand binding); details: Table 6, FIG. 23 compounds
[2] = biological target: D3 receptor (Homo sapiens, UniProt P35462); assay: Receptor binding affinity at dopamine D3 (NIMH-PDSP radioligand binding); details: Table 6, FIG. 23 compounds
[3] = biological target: D4 receptor (Homo sapiens, UniProt P21917); assay: Receptor binding affinity at dopamine D4 (NIMH-PDSP radioligand binding); details: Table 6, FIG. 23 compounds
[4] = biological target: 5-HT7 receptor (Homo sapiens, UniProt P34969); assay: Receptor binding affinity at 5-HT7 (NIMH-PDSP radioligand binding); details: read-out: Ki 5-HT7; Table 6, FIG. 23 compounds
[5] = biological target: SERT (Homo sapiens, UniProt P31645); assay: Binding affinity at SERT; details: Table 6, FIG. 23 compounds
[6] = biological target: 5-HT2C receptor (Homo sapiens, UniProt P28335); assay: Receptor binding affinity at 5-HT2C (NIMH-PDSP radioligand binding); details: Table 6, FIG. 23 compounds
[7] = biological target: 5-HT2A receptor (Homo sapiens, UniProt P28223); assay: Receptor binding affinity at 5-HT2A (NIMH-PDSP radioligand binding); details: Table 6, FIG. 23 compounds
[8] = biological target: 5-HT1A receptor (Homo sapiens, UniProt P08908); assay: Receptor binding affinity at 5-HT1A (NIMH-PDSP radioligand binding); details: Table 6, FIG. 23 compounds

| pKi ± SEM D4 [3] | Ki [4] [nM] | pKi ± SEM 5-HT2C [6] | pKi ± SEM 5-HT2A [7] | pKi ± SEM D3 [2] | pKi ± SEM 5-HT1A [8] | Compound | Ki D2 [1] | Ki D3 [2] | Ki SERT [5] | Ki D4 [3] |
| --- | --- | --- | --- | --- | --- | --- | --- | --- | --- | --- |
| (6.34 ± 0.07) | 66.5 | (5.5 ± 0.08) | (6.14 ± 0.06) | – | – | CC1(CCN2CCc3ccccc3C2)Cc2cc(Cl)ccc2C1=O (single isomer, unassigned) [9a (−)] | MTA (MTA = Missed 50% of threshold inhibition) | MTA (MTA = Missed 50% of threshold inhibition) | MTA (MTA = Missed 50% of threshold inhibition) | – |
| – | – | – | – | (6 ± 0.05) | (6.43 ± 0.06) | CC1(CCN2CCc3ccccc3C2)Cc2cc(Cl)ccc2C1=O (single isomer, unassigned) [9b (+)] | MTA (MTA = Missed 50% of threshold inhibition) | – | – | MTA (MTA = Missed 50% of threshold inhibition) |
